The list shows a part of the results, in another mix than the full data. Active and inactive are the calls of the source.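 The calls were made as follows: active = inhibition above its plate's cutoff, the mean inhibition of sample wells plus 3 SD (cut at about 27% in these data); inactive = the rest.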
target: Muscarinic acetylcholine receptor M4 (Homo sapiens) (UniProt P08173); assay: CHRM4 blockers of acetylcholine calcium response – CHO cells, Fluo-8 calcium fluorescence, primary screen (AID 624125); details: CHO-hM4 cells, ACh EC80, Fluo-8 calcium fluorescence; at 3 µM; active compounds read high;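 also: 0% = acetylcholine EC80 with DMSO and 100% = DMSO without agonist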

The chains behind the UniProt entries cited, without tags or fusion partners.
UniProt P08173, whole entry: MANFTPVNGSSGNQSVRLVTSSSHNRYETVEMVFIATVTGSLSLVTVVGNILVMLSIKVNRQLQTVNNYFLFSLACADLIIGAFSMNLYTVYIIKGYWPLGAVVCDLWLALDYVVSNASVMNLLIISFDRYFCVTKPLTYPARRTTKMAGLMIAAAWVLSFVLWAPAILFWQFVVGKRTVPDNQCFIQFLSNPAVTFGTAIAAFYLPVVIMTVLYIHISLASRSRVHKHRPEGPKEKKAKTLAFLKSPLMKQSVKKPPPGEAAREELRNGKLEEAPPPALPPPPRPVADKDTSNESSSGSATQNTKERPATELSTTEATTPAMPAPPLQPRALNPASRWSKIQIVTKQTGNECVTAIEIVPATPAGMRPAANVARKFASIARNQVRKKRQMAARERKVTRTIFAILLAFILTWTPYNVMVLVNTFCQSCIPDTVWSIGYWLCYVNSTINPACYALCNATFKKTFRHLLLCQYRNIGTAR

Structure (SMILES)	inhibition
O=C(NCC1(N2CCOCC2)CCCCC1)c1cc(Br)ccc1Cl	inactive: -28.9%
COc1cc(C(=O)NCC2(N3CCOCC3)CCCCC2)cc(OC)c1C	inactive: -4.9%
CCCCn1nnnc1C(c1ccccc1)N1CCC(n2c(=O)[nH]c3ccccc32)CC1 (stereo not given)	inactive: 12.1%
O=c1[nH]c2ccccc2n1C1CCN(C(c2ccnc3ccccc23)c2nnnn2C2CCCC2)CC1 (stereo not given)	inactive: 4.58%
COc1ccc(C(=O)NCC2(N3CCOCC3)CCCCC2)cc1OC	inactive: -9.04%
O=c1[nH]c2ccccc2n1C1CCN(C(c2cccs2)c2nnnn2C2CCCCC2)CC1 (stereo not given)	inactive: 24.3%
N/C(=N\O)c1c(N)no[n+]1[O-]	inactive: -4.94%
COc1cccc(C(c2nnnn2C(C)(C)C)N2CCC(n3c(=O)[nH]c4ccccc43)CC2)c1OC (stereo not given)	inactive: -14.2%
CCOC(=O)N1CCC(Nc2ccc(C)cc2)CC1	inactive: 6.51%
CCCCn1nnnc1C(c1cccc(OC)c1OC)N1CCC(n2c(=O)[nH]c3ccccc32)CC1 (stereo not given)	inactive: 14.8%
O=c1[nH]c2ccccc2n1C1CCN(C(c2cccs2)c2nnnn2C2CCCC2)CC1 (stereo not given)	inactive: 7.79%
CC(C)(C)OC(=O)N1CCC(N(C(=O)c2ccccc2)c2ccc(Cl)cc2)CC1	inactive: -26.2%
N#Cc1ccc(C(=O)NCC2(N3CCCCC3)CCCCC2)cc1	inactive: -4.76%
CCCN1CCC(Nc2cc(OC)cc(OC)c2)CC1	inactive: -1.56%
O=c1[nH]c2ccccc2n1C1CCN(C(c2ccccc2)c2nnnn2C2CCCC2)CC1 (stereo not given)	inactive: 12.9%
Cc1cc(N(CCCl)CCCl)ccc1C=O	inactive: -7.69%
c1ccc(CN2CCC(Nc3ccccc3)CC2)cc1	inactive: -1.66%
CN(C)C1(CNC(=O)c2cccc(C#N)c2)CCCCC1	inactive: -8.08%
CC(C)(C)n1nnnc1C(c1cccc2ccccc12)N1CCC(n2c(=O)[nH]c3ccccc32)CC1 (stereo not given)	inactive: 10.7%
O=c1[nH]c2ccccc2n1C1CCN(C(c2ccnc3ccccc23)c2nnnn2C2CCCCC2)CC1 (stereo not given)	inactive: -2.52%

Structure (SMILES)	inhibition
COc1cc(OC)cc(C(=O)NCC2(N3CCCCC3)CCCCC2)c1	inactive: 3.55%
CCC(c1nnnn1C1CCCCC1)N1CCC(n2c(=O)[nH]c3ccccc32)CC1 (stereo not given)	inactive: -20.2%
CC(=O)N(c1ccccc1)C1CCNCC1	inactive: -9.34%
COc1cccc(C(c2nnnn2C2CCCCC2)N2CCC(n3c(=O)[nH]c4ccccc43)CC2)c1OC (stereo not given)	inactive: 22.7%
Cc1ccc(NC2(C#N)CCN(Cc3ccccc3)CC2)cc1	inactive: -3.9%
Fc1ccccc1NC1CCN(Cc2ccccc2)CC1	inactive: -10.2%
Cc1ccc(C(=O)NCC2(N3CCCCC3)CCCCC2)o1	inactive: 1.85%
CC(C)(C)n1nnnc1C(c1ccnc2ccccc12)N1CCC(n2c(=O)[nH]c3ccccc32)CC1 (stereo not given)	inactive: -14.4%
COc1ccc(C(c2nnnn2C2CCCCC2)N2CCC(n3c(=O)[nH]c4ccccc43)CC2)cc1 (stereo not given)	inactive: -7.51%
CCN1CCC(Nc2cccc(F)c2)CC1	inactive: -14.2%
Cc1ccccc1NC1(C#N)CCN(Cc2ccccc2)CC1	inactive: -3.07%
Cn1c(=O)[nH]cc(N(CCCl)CCCl)c1=O	inactive: -3.67%
CN(C)c1ccc(C(=O)NCC2(N3CCCCC3)CCCCC2)cc1	inactive: -14.4%
O=C(NCC1(N2CCCCC2)CCCCC1)c1ccco1	inactive: -3.42%
CN1CCC(Nc2ccc(F)c(Cl)c2)CC1	inactive: 18.3%
CCOc1ncccc1C(=O)NCC1(N2CCOCC2)CCCCC1	inactive: 0.51%
CCCOc1ccc(C(=O)NCC2(N(C)C)CCCCC2)cc1	inactive: -1.07%
O=c1[nH]c2ccccc2n1C1CCN(C(c2cc3ccccc3o2)c2nnnn2C2CCCC2)CC1 (stereo not given)	inactive: 14.1%
NN(c1ccccc1)C1CCN(CCc2ccccc2)CC1	inactive: 11.2%
O=C(O)C1(Nc2ccccc2)CCN(Cc2ccccc2)CC1	inactive: -4.52%

Structure (SMILES)	inhibition
CC(C)(C)OC(=O)N1CCC(Nc2ccccc2)CC1	inactive: 3.84%
COc1cccc(C(=O)N(c2cc(C)cc(C)c2)C2CCN(C(=O)OC(C)(C)C)CC2)c1	inactive: 12.2%
COc1cc(OC)cc(C(=O)NCC2(N3CCOCC3)CCCCC2)c1	inactive: 2.01%
COc1cccc(C(c2nnnn2C2CCCC2)N2CCC(n3c(=O)[nH]c4ccccc43)CC2)c1OC (stereo not given)	inactive: 14.3%
CN1CCC(Nc2ccc(Cl)cc2)CC1	inactive: 3.42%
CCCCn1nnnc1C(c1cccs1)N1CCC(n2c(=O)[nH]c3ccccc32)CC1 (stereo not given)	inactive: 26.2%
CCCCn1nnnc1C(CC)N1CCC(n2c(=O)[nH]c3ccccc32)CC1 (stereo not given)	inactive: 5.53%
O=C(NCC1(N2CCCCC2)CCCCC1)c1cccs1	inactive: 3.44%
O=C(NCC1(N2CCCCC2)CCCCC1)c1ccc(=O)[nH]c1	inactive: 5.96%
CCC(c1nnnn1C1CCCC1)N1CCC(n2c(=O)[nH]c3ccccc32)CC1 (stereo not given)	inactive: -19.2%
COc1ccc(C(=O)NCC2(N3CCCCC3)CCCCC2)c(OC)c1OC	inactive: -10.1%
CC(C)(C)OC(=O)N1CCC(N(C(=O)c2ccccc2)c2ccc(F)cc2)CC1	inactive: 2.51%
COc1ccc(C(=O)NCC2(N3CCCCC3)CCCCC2)cc1	inactive: 2.84%
Cc1cccc(NC2(C#N)CCN(Cc3ccccc3)CC2)c1	inactive: -2.51%
CSc1ccccc1C(=O)NCC1(N2CCCCC2)CCCCC1	inactive: 4.85%
O=C(NCC1(N2CCOCC2)CCCCC1)c1cc2ccccc2o1	inactive: 1.84%
Cc1cc(C)cc(N(C(=O)c2ccccc2)C2CCN(C(=O)OC(C)(C)C)CC2)c1	inactive: 3.67%
O=c1[nH]c2ccccc2n1C1CCN(C(c2ccccc2OC(F)(F)F)c2nnnn2C2CCCCC2)CC1 (stereo not given)	inactive: -9.67%
O=C(NCC1(N2CCCCC2)CCCCC1)c1ccc(Cl)nc1	inactive: -4.22%
CCCCn1nnnc1C(c1ccc(OC)cc1)N1CCC(n2c(=O)[nH]c3ccccc32)CC1 (stereo not given)	inactive: 2.64%

Source: PubChem BioAssay AID624125 (The Scripps Research Institute Molecular Screening Center, 2012)
